In the test the target is Phosphatidylinositol 4,5-bisphosphate 3-kinase catalytic subunit alpha isoform (Homo sapiens, UniProt P42336).

The chains behind the UniProt entries cited, without tags or fusion partners.
UniProt P42336, whole entry: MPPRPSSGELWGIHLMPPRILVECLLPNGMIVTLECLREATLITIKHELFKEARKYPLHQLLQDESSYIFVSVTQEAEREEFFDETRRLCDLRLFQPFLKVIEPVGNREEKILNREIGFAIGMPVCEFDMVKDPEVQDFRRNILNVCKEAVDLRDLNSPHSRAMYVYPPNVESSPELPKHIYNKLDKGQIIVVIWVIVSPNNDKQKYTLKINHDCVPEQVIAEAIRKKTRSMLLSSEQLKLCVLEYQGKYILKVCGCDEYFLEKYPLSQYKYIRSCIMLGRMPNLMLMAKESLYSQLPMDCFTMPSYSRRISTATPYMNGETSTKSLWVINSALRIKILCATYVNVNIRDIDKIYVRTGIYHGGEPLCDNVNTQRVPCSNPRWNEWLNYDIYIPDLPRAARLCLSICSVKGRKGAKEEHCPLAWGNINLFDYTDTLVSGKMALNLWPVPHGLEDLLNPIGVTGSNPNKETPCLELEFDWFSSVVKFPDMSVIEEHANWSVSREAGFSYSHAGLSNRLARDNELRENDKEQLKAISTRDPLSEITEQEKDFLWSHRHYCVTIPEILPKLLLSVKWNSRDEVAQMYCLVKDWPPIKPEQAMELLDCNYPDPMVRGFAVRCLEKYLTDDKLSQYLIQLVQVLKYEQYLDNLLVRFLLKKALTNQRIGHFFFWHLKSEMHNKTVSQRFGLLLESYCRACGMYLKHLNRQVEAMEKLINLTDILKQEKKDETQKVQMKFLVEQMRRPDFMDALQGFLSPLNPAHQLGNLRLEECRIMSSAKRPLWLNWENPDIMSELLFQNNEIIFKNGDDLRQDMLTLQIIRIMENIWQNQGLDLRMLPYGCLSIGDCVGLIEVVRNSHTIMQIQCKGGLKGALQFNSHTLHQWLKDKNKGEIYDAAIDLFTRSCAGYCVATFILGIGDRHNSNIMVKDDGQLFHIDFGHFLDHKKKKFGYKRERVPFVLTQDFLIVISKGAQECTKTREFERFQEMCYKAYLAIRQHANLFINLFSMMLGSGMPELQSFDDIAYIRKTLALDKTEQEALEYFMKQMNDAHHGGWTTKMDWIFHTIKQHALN

In turn, `CN(C(=O)c1cc2c(s1)-c1ccccc1OC2)c1ccccc1Cl` showed an IC50 of 108 nM.

By IC50 is commonly meant the midpoint of a concentration-inhibition curve. High values mean lower potency, low ones higher potency.

The record behind these values is ChEMBL document CHEMBL1795251, “Structure-based design of thienobenzoxepin inhibitors of PI3-kinase” (Bioorg Med Chem Lett, 2011).
